Source: PubChem BioAssay AID923 (National Center for Advancing Translational Sciences (NCATS), 2007)
The entries are a selection whose mix differs from that of the whole data set. Some tests of the compounds listed are not included; inactive here does not mean inactive elsewhere. Calls of active or inactive are those of the source. The call rests on the fitted dose curve; in most records, active means well fitted activation curve with a large enough effect; inconclusive means small, poorly fitted or top-dose-only effect; inactive means flat fitted curve, though single readings scatter.

Assay: qHTS Assay for Allosteric/Competitive Inhibitors of Caspase-1: Spectroscopic Profiling in AFC Spectral Region; further: 0% is about no effect
Conditions: compound fluorescence, AFC spectral region (405/520 nm); at 11.5 µM (top of the series) unless noted

Row | Compound | fluorescence increase
1 | CN1CCC[C@H](OC(=O)[C@](O)(c2ccccc2)C2CCCC2)C1 | inactive: -1%
2 | CN1CC[C@H](OC(=O)[C@](O)(c2ccccc2)C2CCCC2)C1 | inactive: 4.76%
3 | O=C(OC1CN2CCC1CC2)C(CO)(c1ccccc1)c1ccccc1 (stereo not given) | inactive: -0.0419% [at 57.5 µM]
4 | C=C(C)C#C[C@@](O)(C(=O)OC1CCN(C)CC1)c1ccccc1 | inactive: 1.03%
5 | CN(C)c1cccc(C(=O)NCC2(N(C)C)CCCCC2)c1 | inactive: 3.91% [at 57.5 µM]
